Screens deposited in PubChem BioAssay by National Center for Advancing Translational Sciences (NCATS).
An excerpt weighted towards active compounds, which were near 0.62% of everything screened.
p53 reactivator: re-activators of mutant p53 | H1299 p53-A138V BP100-luciferase reporter, luminescence, 24 h | Potency, µM (series often up to 92.2 µM), most hits filed as activators | 0.063% of 320,000 active; active = well fitted activation curve with a large enough effect; inconclusive = small, poorly fitted or top-dose-only effect; inactive = no such curve, though single readings can be large or run the other way; also: nearly all actives have a fitted effect of over 45% in size
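p53-null H1299 cells stably carrying temperature-sensitive p53-A138V and a BP100-luciferase reporter were pinned with compounds (4-point, 1:5 series) and held 24 hrs at 37 deg C. Luminescence was read 10 min after detection reagent.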
pAkt inh: blocks phosphorylation of Akt | Neuro2A IGF-stimulated pAkt S473 HTRF, 20 min; active compounds read low | activity change, % for hits at 50 µM | 0.32% of 360,000 active | AID 651550; in the data active = activity change below about -80%; inconclusive = mostly about -51% to -80%
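Neuro2A cells in DMEM with 0.5% FBS, overnight at 37 deg C, given compound at single 50 µM final, then IGF (6 nM final) for 20 min at 37 deg C. Lysed; phospho-Akt Ser473 by HTRF after 24 h, 665/615 ratio.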
TSHR antag: antagonists of human thyroid stimulating hormone receptor; P16473; TSHR-expressing cells, TSH-stimulated cAMP HTRF, 2 h; active compounds read low; activity change, negative = inhibition, % at 11.5 µM; 0.2% of 330,000 active; AID 504810;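 active = activity change below a set negative limit, meaning inhibition stronger than a set level, cut at about -70% in these data; inconclusive = activity change between two set negative limits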
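Cell-based HTRF cAMP assay; TSHR cells + compound, TSH EC80 (4nM final), 2 h, 37 deg C. Lysis with anti-cAMP cryptate and cAMP-d2, 30 min RT, read 665/620 nm.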
Rango release inh: inhibitors of RanGTP-induced Rango-importin beta complex dissociation | Potency, µM (highest dose often 46.1 µM) | 0.071% of 340,000 active | Biochemical FRET Rango-importin beta, RanGTP-induced dissociation; also: nearly all actives have a fitted effect of over 45% in size
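Two FRET readings bracket the reaction: one 5 min after compound meets Rango–importin beta, another 45 min after RanGTP-RCC1 (0.6 uM Ran, 0.2 uM RCC1, 2 mM GTP) is added. Only the second defines inhibition.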
Rango complex inh: prevents formation of the Rango-importin beta complex | Q14974 | Rango CFP/YFP FRET sensor + importin beta, 45 min | Potency, µM (top dose mostly 92.2 µM) | 0.031% of 340,000 active | AID 540263; also: nearly all actives have a fitted effect of over 15% in size
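Inhibition scored from the CFP 486 nm/YFP 530 nm FRET ratio 45 min after adding 0.125 microM importin beta to 50 nM Rango biosensor preincubated 5 min with compound (room temperature, PBS with DTT, Tween-20, BSA). No-importin wells as positive control.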
Each line names hits and unclear results; the compound was inactive in the other large screens; [ ] = another dose, or the depositor's remark. Unless noted, calls follow the shape of the full dose curve.

O=C(Nc1ccccn1)c1ccc2ccccc2n1	p53 reactivator 45µM
O=C(Nc1nccs1)c1ccc2ccccc2n1	p53 reactivator inconclusive
CCCC1C2C(=O)N(c3ccccc3OC)C(=O)C2ON1c1ccccc1 (configuration not stated)	pAkt inh -110%
CCCC1C2C(=O)N(c3ccccc3)C(=O)C2ON1c1ccccc1 (configuration not stated)	none
COc1ccc(C(=O)OCC(=O)NC23CC4CC(CC(C4)C2)C3)c(OC)c1OC	none
COc1cc(NS(=O)(=O)c2ccc(NC(=O)COc3ccccc3Cl)cc2)nc(OC)n1	pAkt inh -125%
COc1cc(NS(=O)(=O)c2ccc(NC(=O)COc3cccc(C)c3)cc2)nc(OC)n1	none
C/C(=N/O)c1cc(C(C)(C)C)c(O)c(C(C)(C)C)c1	pAkt inh -122%
Cc1cc(C)c2nc(NNC(=O)c3cc(=O)c4ccccc4o3)sc2c1	Rango release inh inconclusive
CN1/C(=C\C=C2/SC(=S)N(CC(=O)O)C2=O)C(C)(C)c2ccccc21	Rango release inh inconclusive, Rango complex inh 23µM
CCN1C(=O)/C(=C/C=C2/SCCN2C)SC1=S	none
C=CCN1C(=O)/C(=C\C=C2\N(C)c3ccccc3C2(C)C)SC1=S	none
CN1CCS/C1=C\C=C1/SC(=S)N(CC(=O)O)C1=O	Rango release inh inconclusive, Rango complex inh 58µM
COC(=O)C(Cc1ccc(O)cc1)NC(=O)CCNC(=O)c1ccco1 (configuration not stated)	Rango release inh inconclusive, Rango complex inh inconclusive
O=C1c2ccccc2C(=O)N1CCCCSc1nnnn1-c1ccccc1	TSHR antag -72
CC1(C(=O)NS(=O)(=O)c2ccc(Br)cc2)CCN1C(=O)C/C=C/c1ccccc1 (configuration not stated)	none (no result: p53 reactivator, TSHR antag, Rango release inh, Rango complex inh)
Cc1cc2c(c(=O)o1)C(C(C)C)C(C#N)=C(N)O2 (configuration not stated)	pAkt inh -100%
Cc1ccc([C@H]2C(C#N)=C(N)Oc3cc(C)oc(=O)c32)o1	none
O=S(=O)(NCCC1=CCCCC1)c1cccc2nsnc12	none
O=C(CCNS(=O)(=O)c1cccc2nsnc12)NCCC1=CCCCC1	pAkt inh -111%
COc1ccc(CCNC(=O)COC(=O)c2cc(S(=O)(=O)N3CCOCC3)ccc2C)cc1OC	none
CCCn1c(N)c(C(=O)CSc2nnc(-c3ccoc3C)n2C)c(=O)n(C)c1=O	none
Cc1cccc(NC(=O)CN2C(=O)S/C(=C\c3cc(C)n(C)c3C)C2=O)c1	Rango release inh 23µM, Rango complex inh inconclusive
COc1ccccc1N1C(=O)S/C(=C\c2cc(C)n(C)c2C)C1=O	Rango release inh 18µM, Rango complex inh inconclusive
Cc1c(/C=C2\SC(=O)N(CC(=O)Nc3ccc4c(c3)OCO4)C2=O)c2ccccc2n1C	Rango release inh 26µM[inhibitor], Rango complex inh inconclusive
CCCCCCNC(=O)CCCCCNS(=O)(=O)c1ccc(Br)cc1	none
O=C(Nc1ccccc1NS(=O)(=O)c1ccc(F)cc1)C1CCC1	none
CN1C(=O)CC(N2CCN(CC(=O)N3CCCC3)CC2)C1=O (configuration not stated)	pAkt inh -113%
CCOC(=O)N1CCN(C(=O)c2oc3ccc(S(=O)(=O)N4CC(C)CC(C)C4)cc3c2C)CC1 (configuration not stated)	none
CCOC(=O)C1CCN(C(=O)c2oc3ccc(S(=O)(=O)N4CC(C)CC(C)C4)cc3c2C)CC1 (configuration not stated)	pAkt inh -82%
O=C(NC1CCCCC1)c1sc(=S)n2c1[nH]c(=O)c1ccccc12	TSHR antag -83
O=C(NCCc1ccccc1)c1ccc2c(=O)[nH]c3c(C(=O)NCC4CCCO4)sc(=S)n3c2c1 (configuration not stated)	TSHR antag inconclusive, Rango complex inh inconclusive
O=C(NCC1CCCO1)c1sc(=S)n2c1[nH]c(=O)c1ccc(C(=O)N3CCCCC3)cc12 (configuration not stated)	none
CCOc1ccc(CCNC(=O)c2ccc3c(=O)[nH]c4c(C(=O)NC(C)C)sc(=S)n4c3c2)cc1	TSHR antag -85 (no result: pAkt inh)
CCCCNC(=O)c1sc(=S)n2c1[nH]c(=O)c1ccccc12	TSHR antag -74
COC(=O)[C@]12CCCCC=C1N(Cc1ccc(Cl)cc1Cl)C(=O)[C@H](CC(=O)N1CCSCC1)C2	none (no result: p53 reactivator, TSHR antag, Rango release inh, Rango complex inh)
CCOC(=O)C1(Cc2ccc(Cl)cc2)CCN(C(=O)c2cc(C)nc(C)n2)CC1	none
C/C(=N\NC(=O)c1csc(C)c1C)c1ccco1	p53 reactivator 7.9µM
COCCn1nnnc1C(c1cc2cccc(C)c2[nH]c1=O)N1CCN(c2ccccc2F)CC1 (configuration not stated)	pAkt inh -90%
COCCn1nnnc1C(c1ccccc1OC)N1CCN(c2ccccc2F)CC1 (configuration not stated)	none
C/C(=N/N=C/c1ccccc1O)c1ccccc1O	p53 reactivator inconclusive, Rango release inh inconclusive, Rango complex inh 37µM
CCCCS/C(N)=N/N=C/c1ccccc1O	pAkt inh -111%
CC12CCC(C/C1=N\OC(=O)c1ccc(F)cc1)C2(C)C (configuration not stated)	pAkt inh -96%
COc1ccccc1CNC(=O)COC(=O)c1cnc(C)cn1	none (no result: p53 reactivator, TSHR antag, Rango release inh, Rango complex inh)
CN(Cc1c(C(=O)N/N=C/c2c(F)cccc2Cl)nnn1-c1nonc1N)C1CCCCC1	none (no result: p53 reactivator, TSHR antag, Rango release inh, Rango complex inh)
CC1CCc2c(sc(NC(=O)c3cccs3)c2C(=O)O)C1 (configuration not stated)	p53 reactivator inconclusive
COC(=O)c1c(NC(=O)c2cccs2)sc2c1CCC(C)C2 (configuration not stated)	p53 reactivator inconclusive, pAkt inh -101%
OCCC1CN(Cc2ccon2)CCN1Cc1ccc(F)c(F)c1 (configuration not stated)	none
CCN1C(=O)[C@H]2[C@@H](c3ccc(-c4cc(C(C)=O)cs4)cc3)N3CCCC[C@@]3(C(=O)OC)[C@H]2C1=O	none
COc1ccc(NC(=O)CSc2nccn2Cc2ccco2)cc1OC	none
Cc1ccc(S(=O)(=O)N(C)c2ccc(NS(C)(=O)=O)cc2)cc1	pAkt inh -120% (no result: p53 reactivator, TSHR antag)
COc1ccc(S(=O)(=O)Nc2ccc(C)cc2)cc1N(C)S(=O)(=O)c1ccc(Cl)cc1	TSHR antag -91
COc1ccc(S(=O)(=O)NN(C)C)cc1N(C)S(=O)(=O)c1ccc(Cl)cc1	none
O=C(N[C@@H](Cc1ccccc1)C(=O)OCc1ccccc1)c1nc[nH]c1C(=O)NCc1ccccc1	none
COc1ccc(-c2ccc(CN3C(C)C(=O)N(Cc4cn(CCC5OCCO5)nn4)CCS3(=O)=O)cc2)cc1OC (configuration not stated)	none (no result: p53 reactivator, TSHR antag, Rango release inh, Rango complex inh)
